Earlier results as cited in paper PMC9469208 (Journal of Medicinal Chemistry, 2022).

Tested on: motor coordination of mice
Details: mouse, in vivo, ip; cited from earlier work

CC[C@@H](C(N)=O)N1CCCC1=O [LEV, levetiracetam]
TD50 (rotarod): >500 mg/kg
